Assay results published in patent US9873693B2 (Sunesis Pharmaceuticals, Inc., priority 2006, dated 2018).

Key:
Phospho-T308 Akt = Phospho-T308 Akt detection using immunoblot (western blot) in PC-3 cells
phospho-akt (Thr308) = phospho-akt (Thr308) MSD ELISA in PC-3 cells; type: cell-based

CN(C)C(=O)CCC(NC(=O)c1cccn(Cc2ccc(F)c(F)c2)c1=O)c1nc(-c2c[nH]c3ncccc23)cs1 (stereo not shown)
Reduction of Cellular Levels of Akt p308 By Western (Phospho-T308 Akt; 2 hour incubation, concentration not given in Table 2): bb (inhibition of from 25% to 75%)
Percent Inhibition of phospho-Akt (308) By Western (Phospho-T308 Akt; at 5 μM): 5 μM = dd (inhibition of from 25% to 75%)
Percent Inhibition of phospho-Akt (308) By MSD ELISA (phospho-akt (Thr308); at 1 μM): d (inhibition of less than 25%)
Percent Inhibition of phospho-Akt (308) By MSD ELISA (phospho-akt (Thr308); at 10 μM): dd (inhibition of from 25% to 75%)
